This is an account of results in US20110300558A1.

Test [1] has as its target Streptavidin (UniProt P22629). Put plainly: europium-loaded BCCP-ferritin particles on streptavidin-coated 96 well plates, time-resolved fluorescence of the europium inside ferritin; control reaction with 0.001 mM soluble biotin.
Test [2] addresses Streptavidin (UniProt P22629). Put plainly: multiwell plate assay (Example 4) with Eu-labelled streptavidin as label, time-resolved fluorescence; reference is ferritin particles without binding molecule.

In the test with Streptavidin [1], “Ferritin based particles expressing BCCP (Biotin Carboxyl Carrier Peptide) on their surface (BCCP-Human ferritin light chain fusion protein, plasmid pBccpHFl) (from UniProt P0ABD8 70-156; P02792 1-175)” registered a fold signal as compared to control (excess soluble biotin) of 163 fold. In the test with Streptavidin [2], the fold signal as compared to particles produced with pET-26(+)rHuLFt stood at 326 fold.
